# Measured values published in published antibiotic growth screens (doi:10.1038/s41589-023-01349-8).
# Some of the results follow.
# System: A. baumannii ATCC 17978
# Experiment: relative growth (fraction of control); higher = less inhibition
# Settings: 50 µM
row,Compound,relative growth
1,COC(=O)C(N)CS.Cl (centres undefined),0.984
2,CC(=O)NCCOCCOCC(=O)N[C@@H]1C/C=C/CCC(=O)N[C@H](c2ccccc2)COC1=O,1
3,CC(C)NCC(O)COc1ccc(CC(N)=O)cc1 (centres undefined),0.977
4,O=C(C[C@@H]1CC[C@H]2[C@@H](COC[C@H](O)CN2C(=O)Nc2ccc(Cl)c(Cl)c2)O1)NCc1ccncc1,1.1
5,COc1ccc([C@@H]2CC(=O)c3c(O)cc(O[C@@H]4O[C@H](CO[C@H]5O[C@@H](C)[C@H](O)[C@@H](O)[C@H]5O)[C@@H](O)[C@H](O)[C@H]4O)cc3O2)cc1O,1.1
6,C=CC[C@]1(C(=O)NCCN2CCOCC2)COC(c2ccc(OCCCO)cc2)=N1,1.03
7,O=C(NCCO)C(=O)NCc1ccco1,1.04
8,CSc1sc(C)cc1/C=N/O,1.01
9,CCS(=O)(=O)NCC[C@H]1CC[C@H](NC(=O)Cc2ccccn2)[C@H](CO)O1,1.22
10,Cc1cc(C(=O)NCc2cccn2C)nn1C,1.02
11,C[C@@H]1CN([C@H](C)CO)S(=O)(=O)c2ccc(C3=CCCC3)cc2O[C@@H]1CN(C)S(=O)(=O)c1cn(C)cn1,0.807
12,O=C(CN1CCOCC1)N[C@@H]1CC[C@H](CCn2cc(C3CCCC3)nn2)O[C@@H]1CO,0.99
13,O=C(CN1CCOCC1)N[C@H]1CC[C@H](CCn2cc(C3CCCC3)nn2)O[C@@H]1CO,0.959
14,O=C(C[C@@H]1CC[C@H]2[C@@H](COC[C@@H](O)CN2S(=O)(=O)c2ccccc2Cl)O1)NCc1ccccc1Cl,0.914
15,COC(=O)[C@@H](NC(=O)c1cc(C)on1)C(C)C,0.982
16,CC1(C)S[C@@H]2[C@H](NC(=O)COc3ccccc3)C(=O)N2[C@H]1C(=O)[O-].[K+],0.244
17,NC(Cn1ccc(=O)c(O)c1)C(=O)O (centres undefined),1.2
18,CN1C2CCC1CC(OC(c1ccccc1)c1ccccc1)C2.CS(=O)(=O)O (centres undefined),0.922
19,NNC(=O)c1nnn(-c2nonc2N)c1CN1CCCCC1,1.09
20,Cn1cc[nH]c1=S,0.916
21,CC(=O)N(CC(O)CO)c1c(I)c(C(=O)NCCO)c(I)c(C(=O)NCC(O)CO)c1I (centres undefined),1.08
22,Cc1ccc(C(=O)Nc2ccc(S(=O)(=O)[O-])c3cc(S(=O)(=O)[O-])cc(S(=O)(=O)[O-])c23)cc1NC(=O)c1cccc(NC(=O)Nc2cccc(C(=O)Nc3cc(C(=O)Nc4ccc(S(=O)(=O)[O-])c5cc(S(=O)(=O)[O-])cc(S(=O)(=O)[O-])c45)ccc3C)c2)c1.[Na+].[Na+].[Na+].[Na+].[Na+].[Na+],1.3
23,Cc1ccc([C@@H]2O[C@H](CO)[C@@H](O)[C@H](O)[C@H]2O)cc1Cc1ccc(-c2ccc(F)cc2)s1,0.844
24,O=C(CN1CCOCC1)NCC[C@@H]1CC[C@H](NC(=O)Nc2ccccc2)[C@H](CO)O1,1.05
25,CC(C)(C)c1csc(-c2ccc(OC(F)(F)F)cc2)n1,1.13
26,O=S1(=O)C[C@H](NC[C@H]2C[C@@H]3C=C[C@H]2C3)[C@@H](O)C1,0.983
27,C=CC(=O)NC(C)(C)CCN1CCOCC1,1.13

row,Compound,relative growth
1,Cc1cc(N2C(=O)CCC2=O)no1,0.833
2,COc1ccccc1-c1cc(=O)c2c(OC)cccc2o1,1.22
3,CCCNC(=O)N1C[C@H](O)COC[C@H]2O[C@@H](CC(=O)N3CCN(C)CC3)CC[C@@H]21,0.998
4,CC(C)CN1C(=O)[C@@]2(c3ccc([N+](=O)[O-])cc3)CC(=O)N(CC3C4CC5CC(C4)CC3C5)[C@@H]2c2ccc(CO)cc21 (some centres undefined),0.961
5,Cc1ccccc1CCCCN,0.982
6,O=C(C[C@H]1C[C@@H]2c3cc(NC(=O)C4CCOCC4)ccc3O[C@@H]2[C@H](CO)O1)NCc1ccc2c(c1)OCO2,1.04
7,CC(C)c1ccc(N2C=Nc3ccc(C(C)C)cc3C2)cc1,0.751
8,COC(=O)c1c(CC[C@@H](CO)NC(=O)N[C@@H](Cc2ccccc2)Cn2cc(-c3ccccn3)nn2)oc(C(=O)N2CCOCC2)c1C(=O)OC,0.926
9,NC(=O)NCC#Cc1ccc2c(c1)[C@]1(C(=O)N2)[C@H](C(=O)N2CCN(c3ncccn3)CC2)[C@H]2C(=O)O[C@H](c3ccccc3)[C@H](c3ccccc3)N2[C@@H]1c1ccccc1OCCO,1.35
10,CN1CCCN=C1COC(=O)C(O)(c1ccccc1)C1CCCCC1.Cl (centres undefined),0.967
11,C[C@@H]1O[C@@H](O[C@@H]2[C@@H](O)[C@H](C)O[C@@H](OC[C@H]3O[C@@H](Oc4c(-c5ccc(O)c(O)c5)oc5cc(O)cc(O)c5c4=O)[C@@H](O)[C@@H](O)[C@@H]3O)[C@@H]2O)[C@H](O)[C@H](O)[C@H]1O,1.11
12,Cl.Cl.N=C(NCCCCCCNC(=N)NC(=N)Nc1ccc(Cl)cc1)NC(=N)Nc1ccc(Cl)cc1,0.157
13,COCC#Cc1ccc2c(c1)O[C@@H](CN(C)Cc1ccc3c(c1)OCO3)[C@@H](C)CN([C@H](C)CO)S2(=O)=O,0.773
14,CCN[C@H]1C[C@H](C)S(=O)(=O)c2sc(S(N)(=O)=O)cc21.Cl,0.914
15,Cc1cccc(S(=O)(=O)N2C[C@H](O)COC[C@H]3O[C@H](CC(=O)N4CCN(C)CC4)CC[C@@H]32)c1,0.869
16,O=C(C[C@@H]1CC[C@@H]2[C@H](COC[C@H](O)CN2Cc2ccccc2F)O1)N[C@@H]1CCN(Cc2ccccc2)C1,0.957
17,CCCCCCCC(=O)OCC(COC(=O)CCCCCCC)OC(=O)CCCCCCC,1.29
18,O=S(=O)(NCC[C@@H]1CC[C@@H](NS(=O)(=O)c2ccccc2Cl)[C@@H](CO)O1)c1ccc(F)cc1,1.24
19,Clc1ccc(COC(Cn2ccnc2)c2ccc(Cl)cc2Cl)cc1.O=[N+]([O-])O (centres undefined),0.952
20,O=C(NNC(=O)C1CCNCC1)c1cccnc1,0.992
21,Cn1c(=O)c2c(ncn2CC2OCCO2)n(C)c1=O,0.891
22,CCCNC(=O)N1C[C@H](O)COC[C@@H]2O[C@@H](CC(=O)NCCCN3CCOCC3)CC[C@H]21,0.959
23,CCC(=O)Nc1ccc2c(c1)C(=O)N(C)C[C@@H](OC)[C@@H](C)CN(C(=O)CN1CCOCC1)[C@@H](C)CO2,1.02
24,C=CCN1C(=O)[C@]2(O[C@H](CCn3cc([C@H](O)c4ccccc4)nn3)[C@@H]([Si](C)(C)c3ccc(OC)cc3)[C@@H]2C)c2cc(N3C(=O)c4cccc5cccc3c45)ccc21,1.15
25,COc1ccc([C@H]([C@@H](O)Cc2ccccc2)N(C[C@H](/C=C/c2ccccc2)NC(=O)C(Cl)(Cl)Cl)[C@@H](Cc2ccccc2)C(OC)OC)cc1,1.25
26,COC(=O)C[C@@H]1CC[C@@H]2[C@H](COC[C@@H](O)CN2S(=O)(=O)c2ccccc2C)O1,1.03
27,O=C(O)CCCCC1SCC2NC(=O)NC21 (centres undefined),1.03

row,Compound,relative growth
1,CC[C@@H](N)CC12CC3CC(CC(C3)C1)C2,0.901
2,CN(C)c1cc(NC(=O)CNC(C)(C)C)c(O)c2c1C[C@H]1C[C@H]3[C@H](N(C)C)C(O)=C(C(N)=O)C(=O)[C@@]3(O)C(O)=C1C2=O,0.996
3,Nn1c(Cn2ccnc2)nnc1Cn1ccnc1,1.1
4,COc1cccc(NC(=O)N2C[C@@H](O)COC[C@@H]3O[C@@H](CC(=O)NCc4ccccc4F)CC[C@H]32)c1,0.929
5,COc1cc(NS(=O)(=O)c2ccc(N)cc2)nc(OC)n1,1.04
6,C=CCOC(=O)[C@@H]1[C@H]2C(=O)O[C@H](c3ccccc3)[C@H](c3ccccc3)N2[C@H](c2ccc(OCCOC(=O)NCCCCCC(=O)NO)cc2)[C@]12C(=O)Nc1ccccc12,0.942
7,CC(=O)Oc1ccccc1C(=O)Nc1ccccc1,0.979
8,CO[C@@H]1CN(C)C(=O)c2ccc(NS(=O)(=O)CC(F)(F)F)cc2OC[C@H](C)N(Cc2cccnc2)C[C@H]1C,1.24
9,O=C(CCCCCC(=O)N/N=C/[C@H](O)[C@@H](O)[C@@H](O)[C@H](O)C(=O)O)NO,1.02
10,Cc1nc(=O)c(/C=N/O)c(O)[nH]1,0.98
11,CC(=O)O[C@H]1C[C@@]2(C)[C@@H](C[C@@H](O)C3[C@]2(C)CC[C@H]2[C@H](C)[C@H](O)CC[C@]32C)/C1=C(/CCC=C(C)C)C(=O)O (some centres undefined),0.535
12,Cc1cccc(Nc2ccncc2S(=O)(=O)NC(=O)NC(C)C)c1,1.09
13,CCCNC(=O)C[C@@H]1CC[C@H]2[C@@H](COc3ccc(NS(=O)(=O)c4ccccc4C)cc3C(=O)N2C)O1,0.982
14,CO[C@@H](CN(C)S(=O)(=O)c1ccc(Cl)cc1)[C@@H](C)CN([C@H](C)CO)S(=O)(=O)c1cccc(Cl)c1,0.805
15,C[C@H]1[C@H]([Si](C)(C)F)[C@@H](CCn2cc([C@H](O)c3ccccc3)nn2)O[C@]12C(=O)N(c1ccccc1)c1ccccc12,0.907
16,C[C@@H]1CN([C@@H](C)CO)S(=O)(=O)c2ccc(-c3ccc(C(=O)N(C)C)cc3)cc2O[C@H]1CN(C)C(=O)C1CCOCC1,0.985
17,CC(=O)O[C@@H]1CC[C@@]2(C)C(C[C@@H](OC(C)=O)[C@@]3(C)C4=CC(=O)O[C@@H](c5ccoc5)[C@]4(C)CCC23)C1(C)C (stereo partly drawn) [3alpha-ACETOXYDIHYDRODEOXYGEDUNIN],0.956
18,C[C@H](CO)N1C[C@H](C)[C@H](CN(C)C(=O)C2CCOCC2)Oc2ncc(C#CC3(O)CCCC3)cc2C1=O,0.905
19,COc1cc2c(cc1OC)C(=O)NCC2,1.01
20,C[C@H]1CN([C@@H](C)CO)S(=O)(=O)c2ccc(-c3cncnc3)cc2O[C@@H]1CN(C)C(=O)Cc1ccncc1,1.12
21,C=C(C)[C@H]1COc2cc3oc(=O)ccc3cc2O1,0.988
22,NCc1ccc(-c2ccccc2O)cc1,0.922
23,NCCCCCc1nc2ccccc2[nH]1,0.866
24,CO[C@@H]1CN(C)C(=O)c2cc(NS(=O)(=O)CC(F)(F)F)ccc2OC[C@H](C)N(Cc2ccccn2)C[C@H]1C,1.11
25,COc1ccccc1S(=O)(=O)N[C@@H]1CC[C@H](CCNC(=O)C2CC2)O[C@H]1CO,0.969
